The results in this text go back to article PMC7024175, “In Depth Analysis of Kinase Cross Screening Data to Identify CAMKK2 Inhibitory Scaffolds” (Molecules, 2020).

Amino acid sequences for entries named in this document (tags omitted). Residues count along the entry.
UniProt Q96RR4, 165-446 limits assumed: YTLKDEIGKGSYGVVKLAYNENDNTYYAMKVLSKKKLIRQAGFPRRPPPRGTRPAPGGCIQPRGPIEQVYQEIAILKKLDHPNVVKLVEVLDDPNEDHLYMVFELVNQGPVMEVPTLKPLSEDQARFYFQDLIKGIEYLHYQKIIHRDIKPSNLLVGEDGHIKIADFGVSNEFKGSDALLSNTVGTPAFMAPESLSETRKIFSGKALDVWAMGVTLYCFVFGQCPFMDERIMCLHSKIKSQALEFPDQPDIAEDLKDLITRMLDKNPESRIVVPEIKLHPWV

In this assay the target is CAMKK2 (Homo sapiens, UniProt Q96RR4). Kind of assay: CAMKK2 DSF assay (differential scanning fluorimetry). The settings on record: read-out: CAMKK2 ΔTm.

As to `COc1cc(N2CCC(N3CCN(C)CC3)CC2)ccc1Nc1ncc(Cl)c(Nc2ccccc2P(C)(C)=O)n1` [AP26113], the ΔTm at 12.5 µM was 13.6 °C.
